Substrate in the data set: C[C@H]1O[C@@H](n2cnc3c(N)ncnc32)[C@H](O)[C@@H]1O
As to the kind of experiment: Enzymatic assay for HpAFLDA deaminase activity. The following applies: other: deamination by HpAFLDA, 50 mM HEPES pH 7.0, 25 °C. In kind it is biochemical, H. pylori strain J99.

B1: HpAFLDA (jhp0252) (Helicobacter pylori J99) (protein)
chain: MQEIIGASLVFLCNEKCEVLEDYGVVFDEKIVEIGDYHNLTLKYPHLKAQFFENSVLLPAFINAHTHFEFSNNKASFDYGSFSGWLGSVLNNGGAILENCQGAIQNAIMAQLKSGVGSVGAISNHLIEVNLLKESPLNAVVFLEFLGSSYSLEKLKAFEAKFKELKDLEDQKLKAALAVHAPYSVQKDMALSVIQLAKDSQSLLSTHFLESLEELEWVENSKGWFENFYQRFLKESNFTSLYEGANDYIDMFKDTHTLFVHNQFASLEALKRIKSQVKNAFLITCPFSNRLLSGKALDLERVREAGLSVSVATDGLSSNISLSLLDELRAFLLSHNMPLLELAKIALLGATRHGAKALALNNGEIETNKRADLSVFGFNEKFTKEQAILQFLLHAKEVERLFLGGKRVI
On to B1, for which the Michaelis constant (Km) worked out at 130 ± 50 µM.

Values taken from paper PMC9260860 (Biochemistry, 2021).
